Earlier results on 1 compound are cited in patent US20230167447A1, “Compositions for FNIP1/FNIP2 Gene Modulation and Methods Thereof” (Genetic Intelligence, Inc, priority 2021, published 2023).

Molecules are shown by their SMILES.

This data set has as its system ALS patients. Particulars: in most cases.

Regarding `Nc1nc2ccc(OC(F)(F)F)cc2s1` [Riluzole, riluzole], the “extension of survival of ALS patients” value is 2-3 months.
